The target in experiment [1] is T1, phospho p-38 alpha kinase (Homo sapiens, UniProt Q16539).
T1 construct: purchased Panvera
Nature of the experiment: P-38 alpha kinase assay (spectrophotometric, pyruvate kinase/lactate dehydrogenase coupled). It is filed as biochemical. The note with it: for IC50: Table 5, assay not named. Here is the method:
In this assay, the oxidation of NADH was continuously measured spectrophometrically. […] The reaction was initiated by adding ATP. The absorption at 340 nm was monitored continuously for up to 4 hours at 30° C. on Polarstar Optima plate reader (BMG). The kinase activity (reaction rate) was calculated from the slope at the time frame from 1.5 h to 2 h.
For inhibition determinations, test compounds were incubated with the reaction mixture for ˜5 min before adding ATP to start the reaction. […] IC50 values were calculated from a series of % inhibition values determined at a range of concentrations of each inhibitor using Prism to process the data and fit inhibition curves. Generally, the rates obtained at the time frame of 1.5 h to 2 h were used for these calculations.

The chains behind the UniProt entries cited, without tags or fusion partners. A line that says so, or that is headed by a name, gives the form on record, which may keep a tag or linker. Residues count along the entry.
UniProt Q16539, whole entry: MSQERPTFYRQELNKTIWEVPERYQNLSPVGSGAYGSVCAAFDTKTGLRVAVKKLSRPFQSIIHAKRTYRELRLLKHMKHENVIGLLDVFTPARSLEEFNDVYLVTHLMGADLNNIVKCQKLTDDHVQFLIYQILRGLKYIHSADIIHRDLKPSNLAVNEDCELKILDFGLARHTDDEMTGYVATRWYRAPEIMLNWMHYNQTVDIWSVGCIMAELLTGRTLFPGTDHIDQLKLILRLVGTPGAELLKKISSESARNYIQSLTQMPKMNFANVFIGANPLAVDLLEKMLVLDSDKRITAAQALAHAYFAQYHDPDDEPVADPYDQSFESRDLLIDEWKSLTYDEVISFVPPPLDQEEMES
UniProt Q16539, 1-360 isoform Q16539-2: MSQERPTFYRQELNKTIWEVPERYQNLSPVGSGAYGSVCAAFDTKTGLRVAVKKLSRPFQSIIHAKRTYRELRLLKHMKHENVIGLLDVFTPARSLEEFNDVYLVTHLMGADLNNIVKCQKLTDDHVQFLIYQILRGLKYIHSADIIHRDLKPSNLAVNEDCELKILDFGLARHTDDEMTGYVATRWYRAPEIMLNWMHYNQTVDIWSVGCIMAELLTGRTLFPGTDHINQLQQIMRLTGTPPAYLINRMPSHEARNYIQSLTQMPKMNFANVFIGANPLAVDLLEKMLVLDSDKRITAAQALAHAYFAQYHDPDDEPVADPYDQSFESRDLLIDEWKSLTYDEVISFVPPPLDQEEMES
UniProt P15056, with tags, fused parts or gaps V600E: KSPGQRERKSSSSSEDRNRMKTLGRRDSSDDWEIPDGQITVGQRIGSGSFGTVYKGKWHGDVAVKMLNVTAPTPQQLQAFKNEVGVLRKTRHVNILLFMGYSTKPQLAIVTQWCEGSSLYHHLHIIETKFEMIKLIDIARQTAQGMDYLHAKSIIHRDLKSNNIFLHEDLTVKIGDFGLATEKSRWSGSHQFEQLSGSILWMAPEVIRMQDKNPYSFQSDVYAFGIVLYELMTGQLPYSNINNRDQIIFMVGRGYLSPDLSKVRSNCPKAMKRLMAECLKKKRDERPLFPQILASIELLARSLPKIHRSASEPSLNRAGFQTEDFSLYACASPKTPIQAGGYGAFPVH
UniProt P15056, 433-726 V600E: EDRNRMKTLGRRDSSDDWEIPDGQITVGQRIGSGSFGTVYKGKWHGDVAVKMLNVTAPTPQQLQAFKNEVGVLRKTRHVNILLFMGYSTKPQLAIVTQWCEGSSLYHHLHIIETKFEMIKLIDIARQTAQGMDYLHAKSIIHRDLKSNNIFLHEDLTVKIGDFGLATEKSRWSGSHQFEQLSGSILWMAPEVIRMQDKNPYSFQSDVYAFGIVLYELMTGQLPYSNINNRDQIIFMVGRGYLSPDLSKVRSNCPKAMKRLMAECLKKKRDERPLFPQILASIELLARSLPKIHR
UniProt P35968, with tags, fused parts or gaps DEL940-989/E990V: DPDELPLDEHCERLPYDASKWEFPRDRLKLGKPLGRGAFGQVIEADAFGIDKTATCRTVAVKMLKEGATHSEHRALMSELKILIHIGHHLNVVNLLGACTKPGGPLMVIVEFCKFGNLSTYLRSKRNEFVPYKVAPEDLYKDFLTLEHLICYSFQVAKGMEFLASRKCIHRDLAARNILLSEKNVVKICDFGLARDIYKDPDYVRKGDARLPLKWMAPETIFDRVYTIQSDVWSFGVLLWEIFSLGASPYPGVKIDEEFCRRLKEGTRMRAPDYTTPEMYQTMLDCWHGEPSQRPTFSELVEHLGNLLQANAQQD

Experiment [2] deals with phosphorylated p-38-alpha kinase (Homo sapiens, UniProt Q16539). Description: P-38 alpha kinase assay P1. It is filed as biochemical. The note with it: Method P1; 2 h pre-incubation before ATP.
The target of experiment [3] is T2, B-Raf(V599E) kinase (Homo sapiens, UniProt P15056, V600E). Description: B-Raf(V599E) kinase assay B1. The note with it: Method B1; construct 1. In kind it is biochemical. The protocol:
(§1) The test compounds were incubated with the reaction mixture at 30° C. for 2 h. […] The reaction rate was calculated using the 1.5 h to 2.5 h time frame. […] IC50 values were calculated from a series of percent inhibition values determined at a range of inhibitor concentrations using software routines as implemented in the GraphPad Prism software package.

Experiment [4] deals with T2, B-Raf(V599E) kinase. Description: biochemical. The protocol:
as §1
Same as assay B1 except that (1) construct 2 was employed at a nominal concentration of 2 nM (2) the reaction was pre-incubated at 30° C. for 1 h prior to initiation with ATP (3) a reading time frame of 0.5 h to 1.5 h.

In experiment [5] the target is T3, KDR kinase (Homo sapiens, UniProt P35968, DEL940-989/E990V). Nature of the experiment: KDR kinase assay K1. In kind it is biochemical. The protocol:
IC50 values were calculated from a series of percent inhibition values determined at a range of inhibitor concentrations using software routines as implemented in the GraphPad Prism software package.

The target of experiment [6] is T3, KDR kinase. Description: KDR kinase assay K2.

Turning to `CC(C)(C)c1cc(NC(=O)Nc2ccccc2F)n(-c2cccc(CO)c2)n1` [Example 200, 1-{3-t-butyl-1-[3-(hydroxymethyl)phenyl]-1H-pyrazol-5-yl}-3-(2-fluorophenyl)urea], the inhibition at 1 µM in experiment [1] (read-out: % Inhibition @ concentration, uM) amounted to 73%.

One may read the IC50 as the midpoint of a concentration-inhibition curve. The low end stands for greater potency in that assay, the high end for weaker potency in that assay. Take `CN(C)[C@H]1CCN(C(=O)Cc2cccc(-n3nc(C(C)(C)C)cc3NC(=O)Nc3cccc(Cl)c3Cl)c2)C1` [Example 465, 1-(3-tert-butyl-1-(3-(2-((S)-3-(dimethylamino)pyrrolidin-1-yl)-2-oxoethyl)phenyl)-1H-pyrazol-5-yl)-3-(2,3-dichlorophenyl)urea]: the figures for the IC50 in experiment [2] and in experiment [3] were 0.013 µM and 0.011 µM, respectively.

`CC(C)(C)c1cc(NC(=O)Nc2cccc3ccccc23)n(-c2ccc(C=O)cc2)n1` [Example 359, 1-[3-t-butyl-1-(4-formylphenyl)-1H-pyrazol-5-yl]-3-(naphthalen-1-yl)urea] gave an IC50 in experiment [1] of 0.013 µM.

With `Cn1c(=O)c(-c2cccc(NC(=O)Nc3cc(C4CCCC4)nn3-c3cccc(CC(N)=O)c3)c2)cc2cncnc21` [Example 514, 1-(1-(3-(2-amino-2-oxoethyl)phenyl)-3-cyclopentyl-1H-pyrazol-5-yl)-3-(3-(8-methyl-7-oxo-7,8-dihydropyrido[2,3-d]pyrimidin-6-yl)phenyl)urea], the 50% inhibitory concentration (IC50) in experiment [4] worked out at 36 nM.

Molecule `CC(C)(C)c1cc(NC(=O)Nc2cccc(Cl)c2Cl)n(-c2ccc(CC(=O)N3CCCC(C(=O)O)C3)cc2)n1` (centres unmarked) [Example 476, 1-(2-(4-(3-tert-butyl-5-(3-(2,3-dichlorophenyl)ureido)-1H-pyrazol-1-yl)phenyl)acetyl)piperidine-3-carboxylic acid] had an IC50 in experiment [5] of 1100 nM. In other words, the single-digit micromolar range.

`CC(C)(C)c1cc(NC(=O)Nc2cccc(F)c2F)n(-c2cccc(CC(N)=O)c2)n1` [Example 495, 1-(1-(3-(2-amino-2-oxoethyl)phenyl)-3-tert-butyl-1H-pyrazol-5-yl)-3-(2,3-difluorophenyl)urea] gave an IC50 in experiment [6] of 2700 nM.

`CC(C)(C)c1cc(NC(=O)Nc2cccc(Cl)c2Cl)n(-c2cccc(CC(N)=O)c2)n1` [Example 308, 1-{1-[3-(2-amino-2-oxoethyl)phenyl]-3-t-butyl-1H-pyrazol-5-yl}-3-(2,3-dichlorophenyl)urea] came in with an IC50 in experiment [1] of 0.12 µM. This lies in the sub-micromolar range.

Turning to `CN(C)[C@@H]1CCN(C(=O)Cc2cccc(-n3nc(C(C)(C)C)cc3NC(=O)Nc3cccc(Cl)c3Cl)c2)C1` [Example 464, 1-(3-tert-butyl-1-(3-(2-((R)-3-(dimethylamino)pyrrolidin-1-yl)-2-oxoethyl)phenyl)-1H-pyrazol-5-yl)-3-(2,3-dichlorophenyl)urea], the IC50 in experiment [1] amounted to 0.019 µM; in experiment [2] it was 0.011 µM; in experiment [3], 0.043 µM.

The values above are taken from patent US20090312349A1, “ANTI-INFLAMMATORY MEDICAMENTS” (priority 2004, published 2009).
